Reference: publication PMC12305662, “Fragment-Based Development of Small Molecule Inhibitors Targeting Mycobacterium tuberculosis Cholesterol Metabolism” (Journal of Medicinal Chemistry, 2025)

Protein sequences, listed by entry. Tags and fused reporters are not part of them. Lines headed by an entry give the natural chain unless they say otherwise; changes in a name come on top.
UniProt P9WPP1: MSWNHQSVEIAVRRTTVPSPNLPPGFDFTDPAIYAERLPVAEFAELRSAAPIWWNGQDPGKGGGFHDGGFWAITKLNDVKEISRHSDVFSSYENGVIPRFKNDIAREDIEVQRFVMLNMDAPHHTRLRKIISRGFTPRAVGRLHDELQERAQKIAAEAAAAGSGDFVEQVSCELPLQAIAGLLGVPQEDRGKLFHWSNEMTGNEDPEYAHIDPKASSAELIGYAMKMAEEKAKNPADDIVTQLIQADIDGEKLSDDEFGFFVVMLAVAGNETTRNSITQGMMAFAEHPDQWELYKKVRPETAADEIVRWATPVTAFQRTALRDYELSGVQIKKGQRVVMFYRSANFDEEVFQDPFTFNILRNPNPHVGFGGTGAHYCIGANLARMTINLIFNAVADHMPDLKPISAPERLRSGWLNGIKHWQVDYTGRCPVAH
UniProt P9WPL5: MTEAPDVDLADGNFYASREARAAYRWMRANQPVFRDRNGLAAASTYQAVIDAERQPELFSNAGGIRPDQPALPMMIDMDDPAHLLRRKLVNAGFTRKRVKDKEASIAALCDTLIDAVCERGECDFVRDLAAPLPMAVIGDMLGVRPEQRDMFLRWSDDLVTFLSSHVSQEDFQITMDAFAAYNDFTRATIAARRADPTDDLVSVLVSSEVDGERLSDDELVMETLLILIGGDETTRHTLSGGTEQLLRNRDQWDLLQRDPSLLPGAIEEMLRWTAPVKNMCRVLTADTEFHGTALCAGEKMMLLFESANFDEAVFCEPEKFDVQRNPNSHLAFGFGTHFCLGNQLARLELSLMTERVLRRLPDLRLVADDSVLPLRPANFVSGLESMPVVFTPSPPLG

Legend:
CYP125 [1] = biological target: T1, CYP125 (Mycobacterium tuberculosis, UniProt P9WPP1); format: binding; conditions: compound 100 µM, P450 5 µM; ratio of low spin to high spin CYP125
CYP142 = CYP142 (Mycobacterium tuberculosis, UniProt P9WPL5); experiment: biochemical
CYP125 [2] = biological target: T1, CYP125; format: binding

## c1ccc(Cc2ccncc2)cc1 [1a]
CYP125 [1]
  CYP125 LS/HS: 1.1
CYP142
  Kd: 1800 ± 200 nM
CYP125 [2]
  ligand efficiency (LE): 0.4–0.6
